Test results: ChEMBL document CHEMBL1250451, “Mechanistic insights into a Ca2+-dependent family of alpha-mannosidases in a human gut symbiont” (Nat Chem Biol, 2010)

Biological target: T1, Alpha-1,2-mannosidase (BT_3994) (Bacteroides thetaiotaomicron) (UniProt Q8A0M7)
T1 sequence (whole entry): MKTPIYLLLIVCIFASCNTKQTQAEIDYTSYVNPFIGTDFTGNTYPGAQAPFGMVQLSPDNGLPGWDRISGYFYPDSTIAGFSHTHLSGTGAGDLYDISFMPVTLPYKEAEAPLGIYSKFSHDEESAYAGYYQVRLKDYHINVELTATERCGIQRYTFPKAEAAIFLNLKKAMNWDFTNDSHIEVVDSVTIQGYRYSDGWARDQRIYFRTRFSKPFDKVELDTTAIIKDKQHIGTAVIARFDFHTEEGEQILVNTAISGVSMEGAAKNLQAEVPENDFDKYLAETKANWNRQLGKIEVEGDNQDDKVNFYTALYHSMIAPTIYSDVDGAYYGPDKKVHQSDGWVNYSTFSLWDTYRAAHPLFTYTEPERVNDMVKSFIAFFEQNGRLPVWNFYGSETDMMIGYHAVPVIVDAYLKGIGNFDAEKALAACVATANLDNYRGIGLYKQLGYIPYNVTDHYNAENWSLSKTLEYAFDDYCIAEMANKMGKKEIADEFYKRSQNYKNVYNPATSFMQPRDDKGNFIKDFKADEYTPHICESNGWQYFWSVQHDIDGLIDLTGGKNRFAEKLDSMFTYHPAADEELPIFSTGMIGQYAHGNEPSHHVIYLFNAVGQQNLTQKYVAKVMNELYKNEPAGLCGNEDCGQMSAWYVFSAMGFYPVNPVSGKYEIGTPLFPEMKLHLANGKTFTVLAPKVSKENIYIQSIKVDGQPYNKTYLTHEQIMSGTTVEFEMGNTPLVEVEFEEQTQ
Assay: Activity of Bacteroides thetaiotaomicron GH92 alpha-mannosidase GH92 alpha-mannosidase 3994 assessed as mannose release at 1 mM after 16 hrs by HPLC relative to untreated control after 16 hrs by HPLC
Type: protein assay

## OC[C@H]1O[C@H](O[C@@H]2[C@H](O)[C@@H](O)O[C@H](CO)[C@H]2O)[C@@H](O)[C@@H](O)[C@@H]1O
  Activity: 100%
